The test concerns the target REV-ERBα LBD (Homo sapiens, UniProt P20393). The test can be described thus: scintillation proximity radioligand binding assay with 3H-STL1267. The conditions noted are these: read-out: Kd for 3H-STL1267 binding, tested as the radiolabelled form. On the technique in general: SPA uses beads or plates that emit light when radiolabelled molecules are held near them.

Amino acid sequences for entries named in this document (tags omitted). Residues count along the entry.
UniProt P20393, 284-614 limits assumed: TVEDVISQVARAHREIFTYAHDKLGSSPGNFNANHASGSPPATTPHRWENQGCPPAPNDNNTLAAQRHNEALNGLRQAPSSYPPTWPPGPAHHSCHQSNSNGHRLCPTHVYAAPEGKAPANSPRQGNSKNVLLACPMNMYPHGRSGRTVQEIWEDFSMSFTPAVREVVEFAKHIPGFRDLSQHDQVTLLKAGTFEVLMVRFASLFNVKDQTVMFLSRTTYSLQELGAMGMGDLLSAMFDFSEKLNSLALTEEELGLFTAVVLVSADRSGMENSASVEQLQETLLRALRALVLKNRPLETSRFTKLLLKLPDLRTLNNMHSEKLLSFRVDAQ

With `Clc1nnc2ccc(Oc3ccccc3-c3ccccc3)nn12` [STL1267], the Kd came out at 448 nM.

Usually Kd stands for the constant that tells how readily two partners part at equilibrium.

The values are drawn from publication PMC9681850, “Structural basis of synthetic agonist activation of the nuclear receptor REV-ERB” (Nature Communications, 2022).
